Experimental findings from publication PMC2805098 are described below.

Substrate in the series: Nc1nc2c(c(=O)[nH]1)N1CN(c3ccc(C(=O)N[C@@H](CCC(=O)O)C(=O)O)cc3)C[C@H]1CN2
The series can be described thus: NADH-CH2-H4folate oxidoreductase assay, steady-state. The settings on record: other: 1000 μM NADH, fit to eq 6, anaerobic, 25 °C, pH 7.2. In kind it is biochemical, Escherichia coli.

B1: Phe223Leu MTHFR (Escherichia coli K-12; F223L) (protein)
chain: MSFFHASQRDALNQSLAEVQGQINVSFEFFPPRTSEMEQTLWNSIDRLSSLKPKFVSVTYGANSGERDRTHSIIKGIKDRTGLEAAPHLTCIDATPDELRTIARDYWNNGIRHIVALRGDLPPGSGKPEMYASDLVTLLKEVADFDISVAAYPEVHPEAKSAQADLLNLKRKVDAGANRAITQFFFDVESYLRFRDRCVSAGIDVEIIPGILPVSNFKQAKKLADMTNVRIPAWMAQMFDGLDDDAETRKLVGANIAMDMVKILSREGVKDFHFYTLNRAEMSYAICHTLGVRPGL
In the case of B1, the kcat (commonly the number of substrate molecules converted per active site and unit of time at saturation) is 14 ± 2 s⁻¹.
